Experimental data published in patent publication US20250195530A1, “POLQ INHIBITORS” (ASTRAZENECA AB, priority 2022, published 2025).

Protein sequences, listed by entry. Tags and fused reporters are not part of them. Residues count along the entry.
UniProt O75417, 1780-2590: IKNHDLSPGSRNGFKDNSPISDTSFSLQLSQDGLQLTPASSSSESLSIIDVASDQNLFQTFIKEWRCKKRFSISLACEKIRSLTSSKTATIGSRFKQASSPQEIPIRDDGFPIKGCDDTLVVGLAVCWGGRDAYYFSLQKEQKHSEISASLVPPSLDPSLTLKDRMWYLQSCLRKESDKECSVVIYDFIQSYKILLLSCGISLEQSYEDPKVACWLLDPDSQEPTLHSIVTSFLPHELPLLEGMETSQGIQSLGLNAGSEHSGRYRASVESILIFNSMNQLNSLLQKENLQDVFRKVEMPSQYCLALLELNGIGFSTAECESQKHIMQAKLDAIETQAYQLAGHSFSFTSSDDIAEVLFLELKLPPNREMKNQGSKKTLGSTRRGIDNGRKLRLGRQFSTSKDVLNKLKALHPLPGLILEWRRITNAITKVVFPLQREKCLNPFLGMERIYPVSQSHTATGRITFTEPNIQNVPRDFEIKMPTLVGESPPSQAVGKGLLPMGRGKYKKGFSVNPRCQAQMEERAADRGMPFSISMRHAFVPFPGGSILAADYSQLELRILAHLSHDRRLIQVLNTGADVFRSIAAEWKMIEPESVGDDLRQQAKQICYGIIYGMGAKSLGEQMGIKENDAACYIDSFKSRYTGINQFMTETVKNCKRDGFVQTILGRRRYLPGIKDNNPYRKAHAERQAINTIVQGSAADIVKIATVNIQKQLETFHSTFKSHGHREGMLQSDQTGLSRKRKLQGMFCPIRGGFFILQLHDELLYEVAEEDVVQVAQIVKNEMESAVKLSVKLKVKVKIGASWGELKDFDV

Biological target: isolated polymerase domain (I1780-V2590) of DNA polymerase theta (Polθ) (Homo sapiens (Human), UniProt O75417)
Assay: biochemical

| IC50 | SMILES |
| --- | --- |
| 6.31 nM | Cc1ccnc(Cn2c(-c3ccc(CN4CC5(CCN5)C4)cc3Cl)nc3c(OC4(C)CC4)ncnc32)c1 [Example T489, 8-(4-((1,6-diazaspiro[3.3]heptan-6-yl)methyl)-2-chlorophenyl)-6-(1-methylcyclopropoxy)-9-((4-methylpyridin-2-yl)methyl)-9H-purine] |
| 6.31 nM | Cc1ccnc(Cn2c(-c3ccc(N4CCNCC4)cc3Cl)nc3c(OC4(C)CC4)ncnc32)c1 [Example T235, 8-(2-chloro-4-(piperazin-1-yl)phenyl)-6-(1-methylcyclopropoxy)-9-((4-methylpyridin-2-yl)methyl)-9H-purine] |
| 10 nM | CC(CCOc1ccc(-c2nc3c(OC4(C)CC4)ncnc3n2Cc2ccccc2Br)c(Cl)c1)C(=O)O (racemic) [Example T278, 4-(4-(9-(2-bromobenzyl)-6-(1-methylcyclopropoxy)-9H-purin-8-yl)-3-chlorophenoxy)-2-methylbutanoic acid] |
| 6.31 nM | CC1(Oc2ncnc3c2nc(-c2cccc(OCCCc4nn[nH]n4)c2Cl)n3Cc2cccc(Cl)c2)CC1 [Example T163, 8-(3-(3-(2H-tetrazol-5-yl)propoxy)-2-chlorophenyl)-9-(3-chlorobenzyl)-6-(1-methylcyclopropoxy)-9H-purine] |
| 5.01 nM | Cc1ccnc(Cn2c(-c3ccc(NC(=O)N(C)C)cc3Cl)nc3c(OC4(C)CC4)ncnc32)c1 [Example T130, 3-(3-chloro-4-(6-(1-methylcyclopropoxy)-9-((4-methylpyridin-2-yl)methyl)-9H-purin-8-yl)phenyl)-1,1-dimethylurea] |
| 20 nM | Cc1ccnc(Cn2c(-c3ccc(C(=O)N4CC[C@H](F)C4)cc3Cl)nc3c(OC4(C)CC4)ncnc32)c1 [Example T281, (S)-(3-chloro-4-(6-(1-methylcyclopropoxy)-9-((4-methylpyridin-2-yl)methyl)-9H-purin-8-yl)phenyl)(3-fluoropyrrolidin-1-yl)methanone] |
| 6.31 nM | COc1ccc(Cl)cc1Cn1c(-c2cccc(OC[C@@H](C)CC(=O)O)c2Cl)nc2c(OC3(C)CC3)ncnc21 (single isomer, unassigned; isomer 1) [Example 50, 4-(2-Chloro-3-(9-(5-chloro-2-methoxybenzyl)-6-(1-methylcyclopropoxy)-9H-purin-8-yl)phenoxy)-3-methylbutanoic acid (isomer 1)] |
| 25.1 nM | COCc1cc(OCCN2CCN(C)CC2)ccc1-c1nc2c(OC3(C)CC3)ncnc2n1Cc1ccccc1 [Example T612, 9-benzyl-8-(2-(methoxymethyl)-4-(2-(4-methylpiperazin-1-yl)ethoxy)phenyl)-6-(1-methylcyclopropoxy)-9H-purine] |
| 12.6 nM | Cc1ccnc(Cn2c(-c3ccc(C4CCNC4=O)cc3Cl)nc3c(OC4(C)CC4)ncnc32)c1 (racemic) [Example T176, 3-(3-chloro-4-(6-(1-methylcyclopropoxy)-9-((4-methylpyridin-2-yl)methyl)-9H-purin-8-yl)phenyl)pyrrolidin-2-one] |
| 5.01 nM | COc1ccc(Cl)cc1Cn1c(-c2ccc(OCCCOC(C)(C)C(=O)O)cc2Cl)nc2c(OC3(C)CC3)ncnc21 [Example U92, 2-(3-(3-chloro-4-(9-(5-chloro-2-methoxybenzyl)-6-(1-methylcyclopropoxy)-9H-purin-8-yl)phenoxy)propoxy)-2-methylpropanoic acid] |
| 3.98 nM | C[C@H](CCOc1cccc(-c2nc3c(OC4(C)CC4)ncnc3n2Cc2cc(Cl)ccc2C#N)c1Cl)C(=O)O [Example U95, (R)-4-(2-chloro-3-(9-(5-chloro-2-cyanobenzyl)-6-(1-methylcyclopropoxy)-9H-purin-8-yl)phenoxy)-2-methylbutanoic acid] |
| 7.94 nM | Cc1ccnc(Cn2c(-c3ccc(OCC(=O)N4CC(O)C4)cc3Cl)nc3c(OC4(C)CC4)ncnc32)c1 [Example T322, 2-(3-chloro-4-(6-(1-methylcyclopropoxy)-9-((4-methylpyridin-2-yl)methyl)-9H-purin-8-yl)phenoxy)-1-(3-hydroxyazetidin-1-yl)ethan-1-one] |
| 7.94 nM | Cc1ccnc(Cn2c(-c3ccc(CCC(N)=O)cc3Cl)nc3c(OC4(C)CC4)ncnc32)c1 [Example T116, 3-(3-chloro-4-(6-(1-methylcyclopropoxy)-9-((4-methylpyridin-2-yl)methyl)-9H-purin-8-yl)phenyl)propanamide] |
| 3.16 nM | CC1(Oc2ncnc3c2nc(-c2cccc(OCCC(C)(C)C(=O)O)c2Cl)n3Cc2cccc(Cl)c2)CC1 [Example T442, 4-(2-chloro-3-(9-(3-chlorobenzyl)-6-(1-methylcyclopropoxy)-9H-purin-8-yl)phenoxy)-2,2-dimethylbutanoic acid] |
| 10 nM | Cc1cnc(Cn2c(-c3cccc(OCCCN4CC(O)C4)c3Cl)nc3c(OC4(C)CC4)ncnc32)s1 [Example T246, 1-(3-(2-chloro-3-(6-(1-methylcyclopropoxy)-9-((5-methylthiazol-2-yl)methyl)-9H-purin-8-yl)phenoxy)propyl)azetidin-3-ol] |
| 15.8 nM | Cc1ccnc(Cn2c(-c3ccc(C(=O)NC4CC4)cc3Cl)nc3c(OC4(C)CC4)ncnc32)c1 [Example T170, 3-chloro-N-cyclopropyl-4-(6-(1-methylcyclopropoxy)-9-((4-methylpyridin-2-yl)methyl)-9H-purin-8-yl)benzamide] |
| 3.16 nM | Cc1ccnc(Cn2c(-c3ccc(OC(C)CO)cc3Cl)nc3c(OC4(C)CC4)ncnc32)c1 (single isomer, unassigned) [Example T126, 2-(3-chloro-4-(6-(1-methylcyclopropoxy)-9-((4-methylpyridin-2-yl)methyl)-9H-purin-8-yl)phenoxy)propan-1-ol] |
| 100 nM | CC1(Oc2ncnc3c2nc(-c2ccc(CC(N)=O)cc2Cl)n3Cc2noc(C(C)(C)C)n2)CC1 [Example T71, 2-(4-(9-((5-(tert-butyl)-1,2,4-oxadiazol-3-yl)methyl)-6-(1-methylcyclopropoxy)-9H-purin-8-yl)-3-chlorophenyl)acetamide] |
| 7.94 nM | CCC(CCOc1ccc(-c2nc3c(OC4(C)CC4)ncnc3n2Cc2cccc(Cl)c2)c(Cl)c1)C(=O)O (racemic) [Example T441, 4-(3-chloro-4-(9-(3-chlorobenzyl)-6-(1-methylcyclopropoxy)-9H-purin-8-yl)phenoxy)-2-ethylbutanoic acid] |
| 7.94 nM | CC1(Oc2ncnc3c2nc(-c2cccc(OCCCC(C)(C)C(=O)O)c2Cl)n3Cc2cccc(Cl)c2)CC1 [Example T565, 5-(2-chloro-3-(9-(3-chlorobenzyl)-6-(1-methylcyclopropoxy)-9H-purin-8-yl)phenoxy)-2,2-dimethylpentanoic acid] |
| 6.31 nM | COc1c(F)cc(Cl)cc1Cn1c(-c2ccc(OCCC(C)C(=O)O)cc2Cl)nc2c(OC3(C)CC3)ncnc21 (racemic) [Example U61, 4-(3-chloro-4-(9-(5-chloro-3-fluoro-2-methoxybenzyl)-6-(1-methylcyclopropoxy)-9H-purin-8-yl)phenoxy)-2-methylbutanoic acid] |
| 7.94 nM | CC(CCOc1ccc(-c2nc3c(OC4(C)CC4)ncnc3n2Cc2cccc(I)c2)c(Cl)c1)C(=O)O (racemic) [Example T285, 4-(3-chloro-4-(9-(3-iodobenzyl)-6-(1-methylcyclopropoxy)-9H-purin-8-yl)phenoxy)-2-methylbutanoic acid] |
| 5.01 nM | Cc1cnc(Cn2c(-c3ccc(OC4CCCN(C)CC4)cc3Cl)nc3c(OC4(C)CC4)ncnc32)s1 (single isomer, unassigned) [Example T389, 2-((8-(2-chloro-4-((1-methylazepan-4-yl)oxy)phenyl)-6-(1-methylcyclopropoxy)-9H-purin-9-yl)methyl)-5-methylthiazole] |
| 39.8 nM | Cc1ccnc(Cn2c(-c3ccc(C(=O)N4C[C@@H](O)[C@H](F)C4)cc3Cl)nc3c(OC4(C)CC4)ncnc32)c1 [Example T282, (3-chloro-4-(6-(1-methylcyclopropoxy)-9-((4-methylpyridin-2-yl)methyl)-9H-purin-8-yl)phenyl)((3R,4R)-3-fluoro-4-hydroxypyrrolidin-1-yl)methanone] |
| 6.31 nM | Cc1ccnc(Cn2c(-c3ccc(NCCN(C)C)cc3Cl)nc3c(OC4(C)CC4)ncnc32)c1 [Example T247, N1-(3-chloro-4-(6-(1-methylcyclopropoxy)-9-((4-methylpyridin-2-yl)methyl)-9H-purin-8-yl)phenyl)-N2,N2-dimethylethane-1,2-diamine] |
| 158 nM | CC1(Oc2ncnc3c2nc(-c2ccc(CC(N)=O)cc2Cl)n3Cc2ccc(F)cc2C#N)CC1 [Example T78, 2-(3-chloro-4-(9-(2-cyano-4-fluorobenzyl)-6-(1-methylcyclopropoxy)-9H-purin-8-yl)phenyl)acetamide] |
| 7.94 nM | Cc1ccnc(Cn2c(-c3ccc(N4CCS(=O)(=O)CC4)cc3Cl)nc3c(OC4(C)CC4)ncnc32)c1 [Example T225, 4-(3-chloro-4-(6-(1-methylcyclopropoxy)-9-((4-methylpyridin-2-yl)methyl)-9H-purin-8-yl)phenyl)thiomorpholine 1,1-dioxide] |
| 63.1 nM | Cc1nc(Cn2c(-c3ccc(CC(N)=O)cc3Cl)nc3c(OC4(C)CC4)ncnc32)cs1 [Example T6, 2-(3-chloro-4-(6-(1-methylcyclopropoxy)-9-((2-methylthiazol-4-yl)methyl)-9H-purin-8-yl)phenyl)acetamide] |
| 2 nM | COc1ccc(F)cc1Cn1c(-c2cccc(OCC[C@@H](C)C(=O)O)c2Cl)nc2c(OC3(C)CC3)ncnc21 [Example U78, (R)-4-(2-chloro-3-(9-(5-fluoro-2-methoxybenzyl)-6-(1-methylcyclopropoxy)-9H-purin-8-yl)phenoxy)-2-methylbutanoic acid] |
| 7.94 nM | CC(CCOc1ccc(-c2nc3c(OC4(C)CC4)ncnc3n2Cc2ccc(C#N)cc2)c(Cl)c1)C(=O)O (racemic) [Example U7, 4-(3-chloro-4-(9-(4-cyanobenzyl)-6-(1-methylcyclopropoxy)-9H-purin-8-yl)phenoxy)-2-methylbutanoic acid] |

| SMILES | IC50 |
| --- | --- |
| CC1(Oc2ncnc3c2nc(-c2ccc(OCCN4C5CCC4CNC5)cc2Cl)n3Cc2ccccc2)CC1 [Example T605, 8-(4-(2-(3,8-diazabicyclo[3.2.1]octan-8-yl)ethoxy)-2-chlorophenyl)-9-benzyl-6-(1-methylcyclopropoxy)-9H-purine] | 5.01 nM |
